Publication PMC6988263 (Parasites & Vectors, 2020)

Sequences of proteins named here, by UniProt entry; tags and fusion partners are left off.
UniProt A0A7I5E8W1, entry or part of it: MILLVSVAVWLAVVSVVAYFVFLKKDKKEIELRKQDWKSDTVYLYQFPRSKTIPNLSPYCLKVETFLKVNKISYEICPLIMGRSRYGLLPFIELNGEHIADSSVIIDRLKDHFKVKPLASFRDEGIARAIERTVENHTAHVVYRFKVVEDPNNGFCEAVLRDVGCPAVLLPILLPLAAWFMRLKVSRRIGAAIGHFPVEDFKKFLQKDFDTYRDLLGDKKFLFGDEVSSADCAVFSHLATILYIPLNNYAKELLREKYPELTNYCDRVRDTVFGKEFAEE

Biological target: rHc-HRG-2 (recombinant Hc-HRG-2) (Haemonchus contortus, UniProt A0A7I5E8W1)
Experiment: biochemical

## C=CC1=C(C)C2=Cc3c(C=C)c(C)c4[n]3[Fe]([Cl])[n]3c(c(C)c(CCC(=O)O)c3=CC3=NC(=C4)C(C)=C3CCC(=O)O)=CC1=N2 [heme]
  Kd: 7.54 ± 0.602 µM
